The target of one test is MAPK8 (human) (UniProt P45983). Put plainly: radiometric filter-binding kinase assay.
In test [1] the target is MAPK10 (human) (UniProt P53779). Kind of test: radiometric filter-binding kinase assay.
For test [2] the target is unchanged.
A further test addresses CPK1 (P.falciparum). Put plainly: KINOMEscan competition binding.

By UniProt entry, the sequences of proteins in these tests, tags left out. Where a name states a change or a piece, a line headed by the entry shows the natural chain unless it says otherwise.
UniProt P45983: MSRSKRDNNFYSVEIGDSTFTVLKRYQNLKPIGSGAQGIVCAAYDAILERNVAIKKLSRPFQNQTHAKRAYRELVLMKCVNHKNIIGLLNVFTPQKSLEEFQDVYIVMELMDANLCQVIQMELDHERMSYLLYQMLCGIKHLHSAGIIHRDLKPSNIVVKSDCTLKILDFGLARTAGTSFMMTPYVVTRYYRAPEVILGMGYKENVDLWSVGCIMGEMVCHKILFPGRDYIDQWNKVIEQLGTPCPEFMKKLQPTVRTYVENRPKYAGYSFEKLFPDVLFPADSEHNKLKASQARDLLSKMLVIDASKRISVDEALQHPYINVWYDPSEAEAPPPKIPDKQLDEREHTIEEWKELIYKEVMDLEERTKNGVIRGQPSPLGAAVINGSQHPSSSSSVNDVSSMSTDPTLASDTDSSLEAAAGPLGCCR
UniProt P53779: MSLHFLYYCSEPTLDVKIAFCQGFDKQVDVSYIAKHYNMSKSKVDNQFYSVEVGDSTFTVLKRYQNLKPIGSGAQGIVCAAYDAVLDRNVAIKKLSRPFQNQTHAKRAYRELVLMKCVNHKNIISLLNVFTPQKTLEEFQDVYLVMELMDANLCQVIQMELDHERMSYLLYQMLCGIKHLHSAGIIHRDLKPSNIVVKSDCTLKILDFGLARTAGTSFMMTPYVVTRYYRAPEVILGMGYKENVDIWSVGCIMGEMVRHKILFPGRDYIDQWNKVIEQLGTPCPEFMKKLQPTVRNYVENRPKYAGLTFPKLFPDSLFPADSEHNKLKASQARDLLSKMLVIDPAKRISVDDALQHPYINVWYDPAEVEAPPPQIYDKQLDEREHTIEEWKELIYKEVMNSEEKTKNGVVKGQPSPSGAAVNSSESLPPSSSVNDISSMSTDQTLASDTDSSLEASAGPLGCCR

The structures appear in SMILES notation.

Consider `Cc1cc(NC(=O)c2cccc(NC(=O)/C=C/CN(C)C)c2)ccc1Nc1nccc(-c2cccnc2)n1`, for which the IC50 on MAPK8 (human) stood at 34.5 nM; on MAPK10 (human) [1], 42.6 nM.

As for `CN(C)C/C=C/C(=O)Nc1cccc(C(=O)Nc2ccc(Nc3nccc(-c4cccnc4)n3)cc2)c1`, the concentration for half-maximal inhibition (IC50) on MAPK10 (human) [2] is 0.7 nM; at MAPK10 (human) [1], 13 nM.

`CN(C)C/C=C/C(=O)Nc1cccc(C(=O)Nc2ccc(Nc3nccc(-c4c(-c5ccccc5)nn5ccccc45)n3)cc2)c1` registered a dissociation constant (Kd) on CPK1 (P.falciparum) of 14 nM.

Source of the values: the kinase profiling compilation of Christmann-Franck et al. (2016).
